Experimental data reported in ChEMBL document CHEMBL1799913, “A combined spectroscopic and crystallographic approach to probing drug-human serum albumin interactions” (Bioorg Med Chem, 2010).

Protein sequences, listed by entry. Tags and fused reporters are not part of them.
UniProt P02768, whole entry: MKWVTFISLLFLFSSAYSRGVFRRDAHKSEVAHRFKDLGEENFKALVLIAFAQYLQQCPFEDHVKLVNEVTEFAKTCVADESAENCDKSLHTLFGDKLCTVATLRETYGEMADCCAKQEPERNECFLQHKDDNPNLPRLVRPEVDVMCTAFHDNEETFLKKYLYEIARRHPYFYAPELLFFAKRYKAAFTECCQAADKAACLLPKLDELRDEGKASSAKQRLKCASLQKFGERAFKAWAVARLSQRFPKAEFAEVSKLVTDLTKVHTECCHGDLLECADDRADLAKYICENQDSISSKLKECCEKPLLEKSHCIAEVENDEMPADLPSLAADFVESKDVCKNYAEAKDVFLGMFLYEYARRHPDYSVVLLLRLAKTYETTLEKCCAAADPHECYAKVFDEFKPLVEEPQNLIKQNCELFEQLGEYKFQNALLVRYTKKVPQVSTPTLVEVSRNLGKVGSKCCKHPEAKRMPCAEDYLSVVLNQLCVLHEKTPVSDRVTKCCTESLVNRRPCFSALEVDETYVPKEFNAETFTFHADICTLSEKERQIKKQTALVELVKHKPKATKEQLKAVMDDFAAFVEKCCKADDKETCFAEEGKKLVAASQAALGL

Biological target: Albumin (Homo sapiens, UniProt P02768)
Assay: Binding affinity to human serum albumin by equilibrium dialysis
Assay type: ADME
Details: isolated protein

In the case of O=C1NC(=O)C(c2ccccc2)(c2ccccc2)N1 [PHENYTOIN], the “log Ks” value is reported as 4.09.
